The values below come from publication PMC10474047.

Test [1] addresses NTRK3-202-3XFLAG (inactive short variant of NTRK3 without the tyrosine kinase domain) (mouse). The test is described as follows: co-IP; WT αT3-1 cells co-transfected with c-Src-eGFP and NTRK3-3XFLAG isoforms for 24 h; modified RIPA lysis buffer (150 mM NaCl, 50 mM Tris pH 8, 1% Triton X-100, phosphatase and protease inhibitors); extracts incubated overnight with anti-FLAG M2 antibody, then Dynabeads Protein G 4 h; blot for pY^416 c-Src (legend: total c-Src too); bands quantified with ImageJ.

Test [2] has as its target NTRK3-205-3XFLAG (NTRK3 isoform with an additional exon in the tyrosine kinase domain) (mouse). The test is described as above.

“c-Src-eGFP (WT c-Src fused in frame with GFP) (from UniProt P05480-2 1-535) (enzyme)”: the fold reduction of co-precipitated pY416 c-Src against NTRK3-201 in test [1] and in test [2] was 2.5 fold each time.
